Reference: patent US9745328B2, “Flap modulators” (JANSSEN PHARMACEUTICA NV, priority 2013, dated 2017)
pKi: −log10 of the molar value. Like-named read-outs stand apart in the source and are kept apart here.

By UniProt entry, the sequences of proteins in these tests, tags left out. Where a name states a change or a piece, a line headed by the entry shows the natural chain unless it says otherwise.
UniProt P20292: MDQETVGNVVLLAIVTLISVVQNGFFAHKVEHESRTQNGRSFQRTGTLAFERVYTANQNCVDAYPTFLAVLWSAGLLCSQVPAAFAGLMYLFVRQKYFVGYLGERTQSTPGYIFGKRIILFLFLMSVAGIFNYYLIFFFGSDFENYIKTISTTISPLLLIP

Target: human FLAP (Homo sapiens (Human), UniProt P20292)
Assay: FLAP binding assay (HTRF format)
Protocol: The ability of the compounds of the present invention to treat a FLAP-mediated disease and/or disorder, or associated symptoms or complications thereof, was determined using the following procedures. Binding assay data represent the average value obtained from two different assay plates, with samples run in duplicate on each plate. Human whole blood assay data represent a single replicate on an assay plate using whole blood from at least one healthy donor.
Data are expressed as a HTRF ratio.

[1] = Table 6 (additional runs), human FLAP wild type, HTRF, read-out: FLAP Binding wild type HTRF Ki

Row | SMILES | pKi [1] | pKi
1 | Nc1cnc(-c2ccc(-c3ccccc3S(=O)(=O)N3CCCC(O)C3)cc2F)cn1 (racemic) [Example 70, racemic 1-{[4′-(5-Aminopyrazin-2-yl)-3′-fluorobiphenyl-2-yl]sulfonyl}piperidin-3-ol] | 8.64 | –
2 | Nc1cnc(-c2ccc(-c3ccccc3S(=O)(=O)N3CCCC(CO)C3)cc2F)cn1 (racemic) [Example 76, racemic (1-{[4′-(5-Aminopyrazin-2-yl)-3′-fluorobiphenyl-2-yl]sulfonyl}piperldin-3-yl)methanol] | 8.77 | –
3 | Nc1cnc(-c2ccc(-c3ccccc3S(=O)(=O)N[C@H]3CCCCNC3=O)cc2F)cn1 (stereo in doubt) [Example 28, (S)-4′-(5-Aminopyrazin-2-yl)-3′-fluoro-N-[(3S)-2-oxoazepan-3-yl]biphenyl-2-sulfonamide] | 7.09 | –
4 | CC(CO)NS(=O)(=O)c1ccccc1-c1ccc(-c2cnc(N)cn2)c(F)c1 (stereo in doubt) [Example 32, 4′-(5-Aminopyrazin-2-yl)-3′-fluoro-N-[(1S)-2-hydroxy-1-methylethyl]piphenyl-2-sulfonamide] | 8.21 | –
5 | C[C@H](NS(=O)(=O)c1ccccc1-c1ccc(-c2cnc(N)cn2)c(F)c1)c1ccccc1 [Example 24, (R)-4′-(5-Aminopyrazin-2-yl)-3′-fluoro-N-[(1R)-1-phenylethyl]biphenyl-2-sulfonamide] | 8.64 | –
6 | C[C@@H](CO)NS(=O)(=O)c1ccccc1-c1ccc(-c2cnc(N)cn2)c(F)c1 [Example 25, (R)-4′-(5-Aminopyrazin-2-yl)-3′-fluoro-N-[(1R)-2-hydroxy-1-methylethyl]piphenyl-2-sulfonamicie] | 8.49 | –
7 | Nc1cnc(-c2ccc(-c3ccccc3S(=O)(=O)N3CC[C@@H](N)C3)cc2F)cn1 [Example 92, (R)-5-(2′-((3-aminopyrrolidin-1-yl)sulfonyl)-3-fluoro-[1,1′-biphenyl]-4-yl)pyrazin-2-amine] | 6.55 | –
8 | Nc1cnc(-c2ccc(-c3ccccc3S(=O)(=O)N3CC[C@H](N)C3)cc2F)cn1 [Example 93, (S)-5-(2′-((3-aminopyrrolidin-1-yl)sulfonyl)-3-fluoro-[1,1′-biphenyl]-4-yl)pyrazin-2-amine] | 7.08 | –
9 | C[C@H](CC#N)NS(=O)(=O)c1ccccc1-c1ccc(-c2cnc(N)cn2)c(F)c1 [Example 170, (R)-4′-(5-aminopyrazin-2-yl)-N-(1-cyanopropan-2-yl)-3′-fluoro-[1,1′-biphenyl)-2-sulfonamide] | – | 8.89
